These results are taken from US9725445B2, “Cycloalkyl nitrile pyrazolo pyridones as Janus kinase inhibitors” (Merck Sharp & Dohme Corp., priority 2013, dated 2017).

The chains behind the UniProt entries cited, without tags or fusion partners. Residues count along the entry.
UniProt O60674, 849-1124: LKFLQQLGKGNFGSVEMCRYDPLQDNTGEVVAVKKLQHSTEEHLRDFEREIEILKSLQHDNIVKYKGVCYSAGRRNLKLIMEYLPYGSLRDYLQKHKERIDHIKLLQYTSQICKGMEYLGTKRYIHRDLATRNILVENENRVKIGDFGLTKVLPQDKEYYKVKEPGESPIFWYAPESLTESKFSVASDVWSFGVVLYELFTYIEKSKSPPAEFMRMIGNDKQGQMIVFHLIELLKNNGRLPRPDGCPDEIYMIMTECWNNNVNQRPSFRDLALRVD

Each structure is given as a SMILES string.

In the assay the target is JAK2 (Homo sapiens (Human), UniProt O60674). The assay is described as follows: Jak biochemical HTRF assay, JAK2. The note with it: recombinant GST-tagged catalytic domain. As to the method: Jak Biochemical HTRF Assay Protocol
The ability of compounds to inhibit the activity of JAK1, JAK2, JAK3, and Tyk2 was measured using a recombinant purified GST-tagged catalytic domain for each enzyme (Invitrogen JAK1 #M4290, JAK2 #M4290, JAK3 #M4290, Tyk2 #M4290) in an HTRF format biochemical assay. […] The basic assay protocol is as follows: First, 250 nL of diluted compounds in DMSO were dispensed into the wells of a dry 384-well Black plate (Greiner #781076) using a Labcyte Echo 555 acoustic dispenser. Subsequent reagent additions employed an Agilent Bravo. […] After equilibration, 2 μL of 10×ATP in 1× assay buffer was added to initiate the kinase reaction and the plates were shaken and then incubated at room temperature for 120 minutes. […] Plates were shaken and centrifuged and then incubated 60 minutes at room temperature and then read on a Perkin Elmer Envision (λex=337 nm, λem=665 and 615 nm, TRF delay time=20 μs). HTRF signal=10,000*665 nm reading/615 nm reading. After normalization to untreated controls, the percent inhibition of the HTRF signal at each compound concentration was calculated. The plot of percent inhibition versus the log of compound concentration was fit with a 4-parameter dose response equation to calculate IC50 values.
Final Reaction Conditions were:
Examples of the instant invention were evaluated in JAK1 and JAK2 in vitro binding assays.
As for `N#C[C@@H]1CCCC[C@@H]1n1nc(Nc2ccc(F)cc2)c2c(=O)[nH]ccc21` (racemic) [Example 1-1, (cis)-2-{3-[(4-Fluorophenyl)amino]-4-oxo-4,5-dihydro-1H-pyrazolo[4,3-c]pyridin-1-yl}cyclohexanecarbonitrile], the IC50 was determined as 36 nM.

Turning to `N#C[C@H]1CCCC[C@@H]1n1nc(Nc2ccc(F)cc2)c2c(=O)[nH]ccc21` (racemic) [Example 2-1, (trans)-2-{3-[(4-Fluorophenyl)amino]-4-oxo-4,5-dihydro-1H-pyrazolo[4,3-c]pyridin-1-yl}cyclohexanecarbonitrile], the IC50 worked out at 7.5 nM.

On to `CC(C)OC(=O)C(C)(C)C(O)(c1ccc(Nc2nn([C@H]3CCCC[C@@H]3C#N)c3cc[nH]c(=O)c23)cc1)C(F)(F)F` (single isomer, unassigned) [Example 3-119, (R or S) Isopropyl 3-(4-((1-((1S,2S)-2-cyanocyclohexyl)-4-oxo-4,5-dihydro-1H-pyrazolo[4,3-c]pyridin-3-yl)amino)phenyl)-4,4,4-trifluoro-3-hydroxy-2,2-dimethylbutanoate], for which the IC50 worked out at 18.6 nM.

Take `CC(C)OC(=O)C(C)(C)C(O)(c1ccc(Nc2nn([C@H]3CCCC[C@@H]3C#N)c3cc[nH]c(=O)c23)cc1)C(F)(F)F` (single isomer, unassigned) [Example 3-120, (R or S) Isopropyl 3-(4-((1-((1S,2S)-2-cyanocyclohexyl)-4-oxo-4,5-dihydro-1H-pyrazolo[4,3-c]pyridin-3-yl)amino)phenyl)-4,4,4-trifluoro-3-hydroxy-2,2-dimethylbutanoate]: the IC50 was found to be 2.7 nM.

With `N#C[C@H]1CCCC[C@@H]1n1nc(Nc2ccc3c(c2)CC2(CC2)C3(O)C(F)(F)F)c2c(=O)[nH]ccc21` (single isomer, unassigned) [Example 3-123, (1S,2S)-2-(3-(((R or S)-1′-hydroxy-1′-(trifluoromethyl)-1′,3′-dihydrospiro[cyclopropane-1,2′-inden]-5′-yl)amino)-4-oxo-4,5-dihydro-1H-pyrazolo[4,3-c]pyridin-1-yl)cyclohexanecarbonitrile], the IC50 came out at 0.29 nM.

Take `N#C[C@H]1CCCC[C@@H]1n1nc(Nc2ccc3c(c2)CC2(CC2)C3(O)C(F)(F)F)c2c(=O)[nH]ccc21` (single isomer, unassigned) [Example 3-124, (1S,2S)-2-(3-(((R or S)-1′-hydroxy-1′-(trifluoromethyl)-1′,3′-dihydrospiro[cyclopropane-1,2′-inden]-5′-yl)amino)-4-oxo-4,5-dihydro-1H-pyrazolo[4,3-c]pyridin-1-yl)cyclohexanecarbonitrile]: the IC50 was 0.88 nM.

Take `CC1c2cc(Nc3nn([C@H]4CCCC[C@@H]4C#N)c4cc[nH]c(=O)c34)ccc2S(=O)(=O)N1CC(F)(F)F` (single isomer, unassigned) [Example 3-128, (1S,2S)-2-(3-(((R or S)-3-methyl-1,1-dioxido-2-(2,2,2-trifluoroethyl)-2,3-dihydrobenzo[d]isothiazol-5-yl)amino)-4-oxo-4,5-dihydro-1H-pyrazolo[4,3-c]pyridin-1-yl)cyclohexanecarbonitrile]: the IC50 stood at 1.9 nM.

With `CC1c2cc(Nc3nn([C@H]4CCCC[C@@H]4C#N)c4cc[nH]c(=O)c34)ccc2S(=O)(=O)N1CC(F)(F)F` (single isomer, unassigned) [Example 3-129, (1S,2S)-2-(3-(((R or S)-3-methyl-1,1-dioxido-2-(2,2,2-trifluoroethyl)-2,3-dihydrobenzo[d]isothiazol-5-yl)amino)-4-oxo-4,5-dihydro-1H-pyrazolo[4,3-c]pyridin-1-yl)cyclohexanecarbonitrile], the IC50 was found to be 2.6 nM.

Regarding `CC(C)(C)N1Cc2cc(Nc3nn([C@H]4CCCCC[C@@H]4C#N)c4cc[nH]c(=O)c34)ccc2S1(=O)=O` (single isomer, unassigned) [Example 3-176, (1S,2S or 1R,2R)-2-{3-[(2-tert-butyl-1,1-dioxido-2,3-dihydro-1,2-benzisothiazol-5-yl)amino]-4-oxo-4,5-dihydro-1H-pyrazolo[4,3-c]pyridin-1-yl}cycloheptanecarbonitrile], the IC50 was determined as 8.6 nM.

`CC(C)(C)N1Cc2cc(Nc3nn([C@@H]4CCCCC[C@H]4C#N)c4cc[nH]c(=O)c34)ccc2S1(=O)=O` (single isomer, unassigned) [Example 3-177, (1R,2R or 1S,2S)-2-{3-[(2-tert-butyl-1,1-dioxido-2,3-dihydro-1,2-benzisothiazol-5-yl)amino]-4-oxo-4,5-dihydro-1H-pyrazolo[4,3-c]pyridin-1-yl}cycloheptanecarbonitrile]: the IC50 is 0.31 nM.

As for `CC(C)(C)N1Cc2cc(Nc3nn([C@H]4CCCCC[C@H]4C#N)c4cc[nH]c(=O)c34)ccc2S1(=O)=O` (single isomer, unassigned) [Example 3-178, (1R,2S or 1S,2R)-2-{3-[(2-tert-butyl-1,1-dioxido-2,3-dihydro-1,2-benzisothiazol-5-yl)amino]-4-oxo-4,5-dihydro-1H-pyrazolo[4,3-c]pyridin-1-yl}cycloheptanecarbonitrile], the IC50 was 3 nM.

Take `CC(C)(C)N1Cc2cc(Nc3nn([C@@H]4CCCCC[C@@H]4C#N)c4cc[nH]c(=O)c34)ccc2S1(=O)=O` (single isomer, unassigned) [Example 3-179, (1S,2R or 1R,2S)-2-{3-[(2-tert-butyl-1,1-dioxido-2,3-dihydro-1,2-benzisothiazol-5-yl)amino]-4-oxo-4,5-dihydro-1H-pyrazolo[4,3-c]pyridin-1-yl}cycloheptanecarbonitrile]: the IC50 turned out to be 2.2 nM.

Turning to `CN(C)C(c1ccc(Nc2nn([C@H]3CCCC[C@@H]3C#N)c3cc[nH]c(=O)c23)cc1)C(F)(F)F` (single isomer, unassigned) [Example 9-3, (1S,2S)-2-(3-(4-((S or R)-1-(Dimethylamino)-2,2,2-trifluoroethyl)phenylamino)-4-oxo-4,5-dihydropyrazolo[4,3-c]pyridin-1-yl)cyclohexanecarbonitrile], the IC50 came to 0.39 nM.

For `CN(C)C(c1ccc(Nc2nn([C@H]3CCCC[C@@H]3C#N)c3cc[nH]c(=O)c23)cc1)C(F)(F)F` (single isomer, unassigned) [Example 9-4, (1S,2S)-2-(3-(4-((R or S)-1-(Dimethylamino)-2,2,2-trifluoroethyl)phenylamino)-4-oxo-4,5-dihydropyrazolo[4,3-c]pyridin-1-yl)cyclohexanecarbonitrile], the IC50 worked out at 0.25 nM.

As for `CC(c1ccc(Nc2nn([C@H]3CCCC[C@@H]3C#N)c3cc[nH]c(=O)c23)cc1)n1nccn1` (single isomer, unassigned) [Example 15-21, (1S,2S)-2-[4-oxo-3-({4-[(1S or 1R)-1-(2H-1,2,3-triazol-2-yl)ethyl]phenyl}amino)-4,5-dihydro-1H-pyrazolo[4,3-c]pyridin-1-yl]cyclohexanecarbonitrile], the IC50 is 0.51 nM.

In the case of `CC(c1ccc(Nc2nn([C@H]3CCCC[C@@H]3C#N)c3cc[nH]c(=O)c23)cc1)n1nccn1` (single isomer, unassigned) [Example 15-22, (1S,2S)-2-[4-oxo-3-({4-[(1R or 1S)-1-(2H-1,2,3-triazol-2-yl)ethyl]phenyl}amino)-4,5-dihydro-1H-pyrazolo[4,3-c]pyridin-1-yl]cyclohexanecarbonitrile], the IC50 was found to be 0.57 nM.

With `CC(C)C(c1ccc(Nc2nn([C@H]3CCCC[C@@H]3C#N)c3cc[nH]c(=O)c23)cc1)n1nccn1` (single isomer, unassigned) [Example 15-30, (1S,2S)-2-[3-({4-[(1S or 1R)-2-methyl-1-(2H-1,2,3-triazol-2-yl)propyl]phenyl}amino)-4-oxo-4,5-dihydro-1H-pyrazolo[4,3-c]pyridin-1-yl]cyclohexanecarbonitrile], the IC50 worked out at 0.42 nM.

For the compound `CC(C)C(c1ccc(Nc2nn([C@H]3CCCC[C@@H]3C#N)c3cc[nH]c(=O)c23)cc1)n1nccn1` (single isomer, unassigned) [Example 15-31, (1S,2S)-2-[3-({4-[(1R or 1S)-2-methyl-1-(2H-1,2,3-triazol-2-yl)propyl]phenyl}amino)-4-oxo-4,5-dihydro-1H-pyrazolo[4,3-c]pyridin-1-yl]cyclohexanecarbonitrile], the half-inhibitory concentration (IC50) was 0.27 nM.

Turning to `CC(c1ccc(Nc2nn([C@H]3CCCC[C@@H]3C#N)c3cc[nH]c(=O)c23)cc1)n1ccnn1` (single isomer, unassigned) [Example 15-41, (1S,2S)-2-[4-oxo-3-({4-[(1R or 1S)-1-(1H-1,2,3-triazol-1-yl)ethyl]phenyl}amino)-4,5-dihydro-1H-pyrazolo[4,3-c]pyridin-1-yl]cyclohexanecarbonitrile], the IC50 was 0.72 nM.

As for `CC(c1ccc(Nc2nn([C@H]3CCCC[C@@H]3C#N)c3cc[nH]c(=O)c23)cc1)n1ccnn1` (single isomer, unassigned) [Example 15-42, (1S,2S)-2-[4-oxo-3-({4-[(1S or 1R)-1-(1H-1,2,3-triazol-1-yl)ethyl]phenyl}amino)-4,5-dihydro-1H-pyrazolo[4,3-c]pyridin-1-yl]cyclohexanecarbonitrile], the IC50 was found to be 0.53 nM.

For orientation: IC50 means the concentration that inhibits the measured activity by half.
